Legend:
[1] = system: Cc1cc(=O)oc2cc(NC(=O)[C@@H](N)CC(=O)O)ccc12; assay: purified protein; settings: no added CaCl2 (the +1.2 mM CaCl2 row is separate in the table), 0.02 M Tris-HCl pH 7.4, 37 °C
[2] = system: Cc1cc(=O)oc2cc(NC(=O)[C@@H](N)CCC(=O)O)ccc12; assay: purified protein; settings: no added CaCl2 (the +1.2 mM CaCl2 row is separate in the table), 0.02 M Tris-HCl pH 7.4, 37 °C

Substance: rhiminopeptidase A (Bitis rhinoceros)
- Km [1]: 4.119 ± 0.135 mM
- kcat [1]: 5.3 s⁻¹
- Km [2]: 2.235 ± 0.089 mM
- kcat [2]: 25.2 s⁻¹
